The values that follow come from patent US20230322721A1 (OSLO UNIVERSITETSSYKEHUS HF, priority 2020, published 2023).

Protein sequences, listed by entry. Tags and fused reporters are not part of them. Lines headed by an entry give the natural chain unless they say otherwise; changes in a name come on top.
UniProt Q9H2K2: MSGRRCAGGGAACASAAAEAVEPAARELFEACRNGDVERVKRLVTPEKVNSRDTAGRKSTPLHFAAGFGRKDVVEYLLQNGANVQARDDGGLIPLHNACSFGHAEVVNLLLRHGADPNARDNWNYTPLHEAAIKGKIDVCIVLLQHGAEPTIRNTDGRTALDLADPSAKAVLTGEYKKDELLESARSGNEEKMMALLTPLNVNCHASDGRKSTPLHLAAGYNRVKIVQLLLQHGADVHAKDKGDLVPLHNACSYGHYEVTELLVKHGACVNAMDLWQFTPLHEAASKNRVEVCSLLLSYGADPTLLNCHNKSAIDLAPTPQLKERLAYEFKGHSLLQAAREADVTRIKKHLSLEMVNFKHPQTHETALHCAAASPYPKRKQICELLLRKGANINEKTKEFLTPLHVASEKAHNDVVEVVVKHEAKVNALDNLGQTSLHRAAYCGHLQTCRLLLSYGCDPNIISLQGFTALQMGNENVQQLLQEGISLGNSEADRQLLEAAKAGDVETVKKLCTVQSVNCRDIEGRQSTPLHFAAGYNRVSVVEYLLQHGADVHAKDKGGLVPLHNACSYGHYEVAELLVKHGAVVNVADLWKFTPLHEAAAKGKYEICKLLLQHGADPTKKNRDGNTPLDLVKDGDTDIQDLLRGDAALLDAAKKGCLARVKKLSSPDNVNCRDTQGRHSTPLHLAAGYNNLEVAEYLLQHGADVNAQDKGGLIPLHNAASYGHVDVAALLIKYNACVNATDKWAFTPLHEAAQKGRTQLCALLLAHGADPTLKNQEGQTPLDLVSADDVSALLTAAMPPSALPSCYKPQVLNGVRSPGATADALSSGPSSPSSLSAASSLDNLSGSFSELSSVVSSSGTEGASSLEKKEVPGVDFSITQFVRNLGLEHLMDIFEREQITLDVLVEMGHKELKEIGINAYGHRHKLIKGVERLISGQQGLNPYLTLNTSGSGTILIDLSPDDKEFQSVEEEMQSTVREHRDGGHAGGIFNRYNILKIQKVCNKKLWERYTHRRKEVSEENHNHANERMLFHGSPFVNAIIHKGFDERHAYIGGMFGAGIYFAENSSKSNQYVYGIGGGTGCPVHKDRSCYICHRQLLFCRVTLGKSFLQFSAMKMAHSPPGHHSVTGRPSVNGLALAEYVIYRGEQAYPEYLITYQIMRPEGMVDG

For this assay, the target named is TNKS2 (Homo sapiens (Human), UniProt Q9H2K2). Nature of the assay: Biochemical IC50 TNKS2. From the text: XLfit (idbs) was used to determine the IC50-values in inhibition experiments. The following formula was chosen to fit the data points (Langmuir Binding Isotherm): fit=((A+(B*x))+(((C−B)*(1−exp((−1*D)*x)))/D)), res=(y−fit).

For the compound `CCOc1ccc(-c2nnc([C@H]3C[C@H](NC(=O)c4cccc5c4nc(C)c(C)[n+]5[O-])C3)n2-c2ccccc2F)nc1` [Example 24, 5-((trans-3-(5-(5-ethoxypyridin-2-yl)-4-(2-fluorophenyl)-4H-1,2,4-triazol-3-yl)cyclobutyl)carbamoyl)-2,3-dimethylquinoxaline 1-oxide], inhibition was half-maximal at 1.8 nM (IC50). For `CCOc1ccc(-c2nnc([C@H]3C[C@H](NC(=O)c4cc[n+]([O-])c5cc(F)cnc45)C3)n2-c2ccccc2F)nc1` [Example 29, 4-((trans-3-(5-(5-ethoxypyridin-2-yl)-4-(2-fluorophenyl)-4H-1,2,4-triazol-3-yl)cyclobutyl)carbamoyl)-7-fluoro-1,5-naphthyridine 1-oxide] the value was 1.8 nM.
